Measurements taken from ChEMBL document CHEMBL1130277, “Three-dimensional quantitative structure-activity relationships from molecular similarity matrices and genetic neural networks. 2. Applications” (J Med Chem, 1997).

Target: GABA-A receptor; anion channel

## CCOC(=O)c1cc2c(cn1)[nH]c1ccccc12
  pIC50: 8.3
